## Ab-95 light chain CDR variants: yeast mating affinities

Values reported by Engelhart et al. 2022, doi:10.1038/s41597-022-01779-4 (FLAb copy).

Binding partner: SARS-CoV-2 spike HR2 peptide, sequence PDVDLGDISGINAS.

Each scFv is VH, three GGGGS repeats, VL, as in the parent Ab-95, and differs from it in the CDRs of the light chain only.
VH: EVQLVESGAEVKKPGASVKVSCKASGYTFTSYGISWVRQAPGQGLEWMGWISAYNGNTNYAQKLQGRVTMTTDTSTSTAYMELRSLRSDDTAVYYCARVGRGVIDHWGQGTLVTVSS
VL: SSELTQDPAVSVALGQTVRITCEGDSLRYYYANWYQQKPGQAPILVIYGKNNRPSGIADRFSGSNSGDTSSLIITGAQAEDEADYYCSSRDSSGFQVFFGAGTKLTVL

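AAYL52 was designed without a model: most single CDR substitutions and a random sample of double and triple ones. The scFvs were displayed on barcoded MATa yeast, the peptide on MATalpha yeast. Mating (16 h, 30 °C) was followed by selection of diploids and sequencing of their barcodes. Scores were corrected for input abundance and mapped to Kd with protein pairs of known affinity run in the same pool. Mating was done three times.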

The parent's light chain CDRs are EGDSLRYYYAN, GKNNRPS, SSRDSSGFQVF; each variant's own CDRs replace them letter for letter.
This list gathers variants with a substitution at K50 (VL, numbered from residue 1).
The Kd shown is the geometric mean over detected replicates; a lower Kd is a better binder.
Where no diploid with the target was found in any replicate, the entry reads "nd": below detection, most likely a poor binder, though not proof of it.
Order: sorted from the lowest average up, undetected variants last.
Background: pairings of library AAYL52 with three empty control strains gave a value in 28% of cases (median 8.2 µM, 5th percentile 800 nM). Values in that range, when seen in few replicates, are hard to tell from nonspecific mating.

The variant EGDSLRYNYAN / GENNKPS / SSRDSSGFQVF gave 2.5 nM (3 of 3 replicates). With EGDSLRQEYAN / GTNNRPS / SSRDSSGFQVF the result was 11 nM (3 of 3 replicates). For EGDSLRYRYAN / GTNNRPS / SSRDSSGQQVF, the assay gave 25 nM (3 of 3 replicates). With EGQSLRYYYAN / GGNNRPG / SSRDSSGFQVF the result was 88 nM (3 of 3 replicates). The variant EGDMLRGYYAN / GPNNRPS / SSRDSSGFQVF gave 130 nM (3 of 3 replicates). The variant EGDSLRYYYAN / GGNIRPS / SSRDSSGFHVF showed 170 nM (3 of 3 replicates). With QGDSLRYYYAN / GNNNRPS / SSIDSSGFQVF the result was 210 nM (3 of 3 replicates). For EGDSLRYKYAN / GDNNRPS / SSRDSSMFQVF, the assay gave 210 nM (3 of 3 replicates).

The variant EGDSLNYYYAN / GTNIRPS / SSRDSSGFQVF showed 250 nM (3 of 3 replicates). For EGDSLRYYYAN / GNNYRPS / SSRDSSPFQVF, the assay gave 270 nM (3 of 3 replicates). The variant EGDSLRNYYAN / GMNNRPS / SSRDSSSFQVF showed 320 nM (3 of 3 replicates). The variant EQDSLRYYYAN / GVNNRPP / SSRDSSGFQVF gave 370 nM (1 of 3 replicates). The variant EGDSLRYYYAN / GPNNRPS / SSEDSSGFQVK showed 410 nM (3 of 3 replicates). The variant EGDSLRSYYAN / GCNNRPS / SSRDSTGFQVF gave 420 nM (3 of 3 replicates). With EGDSLRYYHVN / GHNNRPS / SSRDSSGFQVF the result was 420 nM (3 of 3 replicates). With EGDSLRYYYAN / GHNNRPS / SSRDFSGFQAF the result was 510 nM (3 of 3 replicates).

For SGDNLRYYYAN / GENNRPS / SSRDSSGFQVF, the assay gave 570 nM (3 of 3 replicates). The variant EGDSLRYYYAN / GVNNRPS / SSRDSSGFQVF gave 610 nM (3 of 3 replicates). With EGDSLRYYYAN / GSNNRPL / SSRDSSGSQVF the result was 680 nM (3 of 3 replicates). The variant EMDSLRYYYAN / GPNNRPS / SSRDSSGFQVE showed 700 nM (3 of 3 replicates). The variant EADSLRYYYAN / GGNNRPS / SSRDSSGIQVF gave 890 nM (2 of 3 replicates). With EGDSLRYYSAP / GNNNRPS / SSRDSSGFQVF the result was 1.4 µM (2 of 3 replicates). For RGDSLRYYYAN / GCNSRPS / SSRDSSGFQVF, the assay gave 1.5 µM (3 of 3 replicates). The variant EGDSLRYYYAN / GPNNRPS / SHRDSSGFQVF showed 1.8 µM (1 of 3 replicates).

The variant EGDSLRYYYAN / GYNNRPS / SSLDSSGFQVF gave 1.8 µM (3 of 3 replicates). The variant EGISLRYYYAN / GPNNRPS / YSRDSSGFQVF gave 1.9 µM (3 of 3 replicates). The variant EGDSLRYYVAN / GYNNRPS / SSRDSSGFQVA showed 2.2 µM (2 of 3 replicates). For EGDSLRYYYAN / GWNNRPS / SSRSSSGFQVC, the assay gave 2.3 µM (1 of 3 replicates). For EGDSLRNYYAN / GYNNRPR / SSRDSSGFQVF, the assay gave 3.0 µM (2 of 3 replicates). The variant EGDSLRYYYAN / GYNNRPS / SSRDISGFQVF showed 3.3 µM (2 of 3 replicates). The variant EGDSLRYYYAE / GWNNRPS / SSRDLSGFQVF gave 4.0 µM (1 of 3 replicates). With EGDSLRYYYAN / GLNNRPS / HSRDSSGDQVF the result was 4.8 µM (1 of 3 replicates).

With FEDSLRYYYAN / GVNNRPS / SSRDSSGFQVF the result was 7.0 µM (2 of 3 replicates). For EGDSLRYYYAK / GMNNRPS / SSRDASGFQVF, the assay gave 10 µM (3 of 3 replicates). The variant EGDSLHYYYAN / GYNNWPS / SSRDSSGFQVF showed 11 µM (3 of 3 replicates). With EGDSLCYYYAN / GWNNRPS / SSRDESGFQVF the result was 17 µM (3 of 3 replicates). The variant EGDSLRYYYAN / GENNRYS / HSRDSSGFQVF showed 22 µM (3 of 3 replicates). For EGDSLRYYYAN / MANNRPS / SSRDSSGMQVF, the assay gave 27 µM (2 of 3 replicates). With EGDSLRYYYAN / GRNNRPS / SSRMSSGFQDF the result was 29 µM (1 of 3 replicates). The variant EGDSLRYYYAN / GSNNRPS / SSTDDSGFQVF gave 38 µM (1 of 3 replicates).

With EGDSLRYYYAN / GMNNRPS / SSFDSSGKQVF the result was 40 µM (1 of 3 replicates). For EGDSGRYFYAN / GLNNRPS / SSRDSSGFQVF, the assay gave 41 µM (2 of 3 replicates). For EGDSLRYYYAN / GCNNNPS / SSRDSSCFQVF, the assay gave 43 µM (2 of 3 replicates). For EGDSLRYYYAI / GVANRPS / SSRDSSGFQVF, the assay gave 45 µM (2 of 3 replicates). For EGDSLRYYYAN / GGNNRFS / SSRDSSGFQAF, the assay gave 46 µM (1 of 3 replicates). For EGDSLRYYYAN / GMDNAPS / SSRDSSGFQVF, the assay gave 110 µM (2 of 3 replicates). With EGDSLRYYYAN / GMNNRPS / SKRDSVGFQVF the result was nd (0 of 3 replicates). For EGDSLRYDYAN / GINNRPS / SSRDSSGFQQF, the assay gave nd (0 of 3 replicates).

With EGDSLRYYYAN / GCNNRPS / SSYDSSGNQVF the result was nd (0 of 3 replicates). With EGDSLLYYYQN / GVNNRPS / SSRDSSGFQVF the result was nd (0 of 3 replicates). The variant EGDSLRYYYAN / GWNNRPS / SQRDSSGFGVF gave nd (0 of 3 replicates).

4 of these entries, quoted again:

CDR-L1	CDR-L2	CDR-L3	apparent Kd	detected
EGDSLRYYYAN	GCNNRPS	SSYDSSGNQVF	nd	0 of 3
EQDSLRYYYAN	GVNNRPP	SSRDSSGFQVF	370 nM	1 of 3
EGDSLCYYYAN	GWNNRPS	SSRDESGFQVF	17 µM	3 of 3
EGDSLRYYYAN	GCNNNPS	SSRDSSCFQVF	43 µM	2 of 3